# According to US9598411B2, “Substituted benzimidazole-type piperidine compounds and uses thereof” (priority 2012, dated 2017):
# Experiments:
# [1] = molecular target: delta opioid receptor (Homo sapiens (Human), UniProt P41143); assay: In vitro delta-opioid receptor binding assay ([3H]-Naltrindole displacement)
# [2] = molecular target: T1, human opioid receptor-like (ORL-1) receptor (Homo sapiens (Human), UniProt P41146); assay: In vitro ORL-1 receptor [35S]GTPγS functional assay; format: biochemical
# [3] = molecular target: human kappa opioid receptor (Homo sapiens (Human), UniProt P41145); assay: In vitro kappa-opioid receptor binding assay ([3H]-U69,593 displacement)
# [4] = molecular target: T1, human opioid receptor-like (ORL-1) receptor; assay: In vitro ORL-1 receptor binding assay ([3H]-nociceptin displacement)
smiles,measurement,setting,value
OCc1nc2ccccc2n1C1C[C@H]2CCC[C@@H](C1)N2[C@H]1C[C@@H]2CCC[C@@H](C2)C1 (stereo partly drawn),Ki,[1],> 20 µM
O=C(O)CO/N=C/c1nc2ccccc2n1C1C[C@H]2CCC[C@@H](C1)N2[C@H]1C[C@@H]2CCC[C@@H](C2)C1 (stereo partly drawn),GTPγS ORL-1 Emax [mean ± SEM],[2]; procedure of Example 22,34.7 ± 1.5%
same,EC50,"[2]; read-out: GTPγS ORL-1 EC50 [mean ± SEM], procedure of Example 22",0.0842 µM
same,Ki,[3],1.54 µM
same,Ki,[1],3.96 µM
same,Ki,[4],0.102 µM
